Legend:
BRD4 = BRD4 (Homo sapiens, UniProt O60885); experiment: X-ray crystal structure; BROMOscan affinity
BRPF1 = BRPF1 (Homo sapiens, UniProt P55201); experiment: X-ray crystal structure; BROMOscan affinity

Amino acid sequences for entries named in this document (tags omitted). Residues count along the entry.
UniProt P55201, 625-740 limits assumed: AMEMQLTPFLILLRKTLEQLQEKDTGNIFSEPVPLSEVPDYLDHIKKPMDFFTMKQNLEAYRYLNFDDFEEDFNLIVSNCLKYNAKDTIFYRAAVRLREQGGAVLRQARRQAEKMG

Compound `CC(=O)c1c(C)[nH]c(-c2csc(N3CCNCC3)n2)c1CCC(C)C` has a Kd (BRD4) of 3.4 µM and a Kd (BRPF1) of 1400 nM.

Source: PMC11521936
